# Source: PubChem BioAssay (National Center for Advancing Translational Sciences (NCATS))
# miR-21 FLuc: miR-21 reporter, rising signal | AID 2288 | HeLa miR-21 FLuc reporter, luciferase, 48 h | 340,000 tested, under 10 active | Potency, µM (titrated, usually from 38.3 µM); active = well fitted rising curve with a large enough effect; inconclusive = small, poorly fitted or top-dose-only effect; inactive = no such curve, though single readings can be large or run the other way;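 also: miR-21 action dims this reporter so a rising signal means less miR-21 action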
#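 HeLa cells stably expressing CMV-driven firefly luciferase with a downstream miR-21 binding sequence, endogenously expressing miR-21, were treated with titrations (up to about 40uM final) for 48 hours at 37 degree Celsius. Luciferase luminescence was read after lysis.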
# ALDH1A1 inh: inhibitors of human aldehyde dehydrogenase 1A1; P00352; Purified ALDH1A1, NADH fluorescence, propionaldehyde substrate; Potency, µM (titrated, usually from 75.3 µM), actives largely listed as inhibitors; 220,000 compounds, 7.3% hits; active = well fitted inhibition curve with a large enough effect, not every such curve was filed as active; inconclusive = small, poorly fitted or top-dose-only effect, or another doubt; inactive = no such curve, though single readings can be large or run the other way
# G9a block: blocks human histone lysine methyltransferase G9a; G9a H3K9 monomethylation, AlphaScreen, 2 h; Q96KQ7; AID 504332; 350,000 compounds, 8.8% hits; Potency, µM (top dose mostly 102 µM), usual class: inhibitors; also: nearly all actives have a fitted effect of over 75% in size
#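 G9a (20 nM) was preincubated 15 min with compound, then reacted 2 h at room temperature with 500 nM biotin-H3K9 peptide and 20 µM SAM. Monomethyl-H3K9 detected by AlphaScreen using anti-H3K9me1 antibody.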
# LMNA splice mod: changes lamin A minigene splicing in HeLa cells; Potency, µM (doses to about 46.1 µM), usual class: inhibitors; HeLa LMNA splicing GFP/RFP minigene ratio, 48 h; 200,000 compounds, 0.01% hits; AID 1487; active = well fitted inhibition curve with a large enough effect in the signal ratio, with a control signal flat, not every such curve was filed as active; inconclusive = small, poorly fitted or top-dose-only effect, or effect the other way, or a change in a side signal; the % refers to the signal ratio
#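 Read-out is the ratio of GFP to DsRed2 object intensity, acquired by 488 nm laser-scanning cytometry on HeLa lamin A-EGFP minigene reporter cells. Compound incubation 48 hrs at 37 °C in Opti-MEM with 2% FBS; DMSO 0.5% final.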
# KDM4E inh: blocks human JMJD2E demethylase activity. B2RXH2. JMJD2E catalytic domain, FDH-coupled NADH fluorescence (FDH is formaldehyde dehydrogenase). Potency, µM (top dose mostly 57.1 µM), hits mostly inhibitors. 230,000 compounds, 1.6% hits; active = well fitted inhibition curve with a large enough effect, not every such curve was filed as active; inconclusive = small, poorly fitted or top-dose-only effect, or another doubt; inactive = no such curve, though single readings can be large or run the other way; also: nearly all actives have a fitted effect of over 50% in size
# Sfp PPTase inh: Sfp phosphopantetheinyl transferase inhibition | Q9F4F7 | Biochemical Sfp PPTase activity, qHTS | Potency, µM, hits mostly inhibitors | 310,000 compounds, 3.5% hits | AID 1490;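 also: the enzyme is Sfp with the accession as filed and its product quenches rhodamine fluorescence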
#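 Compounds were incubated with enzyme (final 15 nM) for 15 min at room temperature before substrate addition started the reaction. Fluorescence at 525 nm excitation, 598 nm emission was recorded immediately and after 30 minutes.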
# Numbers stand for hits; 0 = inactive; ? = inconclusive; - = not tested or not shown; [ ] = dose if it differs, or a comment. Rows were chosen to be rich in hits. Some 13% of all compounds tested hit in one or more screens of this group. Unless noted, calls follow the shape of the dose curve; as a rule, active = well fitted curve in the direction sought with a large enough effect; inconclusive = small, poorly fitted or top-dose-only effect, or another doubt; inactive = no such curve, though single readings can be large; an effect the other way counts as inactive or inconclusive.
SMILES,miR-21 FLuc,ALDH1A1 inh,G9a block,LMNA splice mod,KDM4E inh,Sfp PPTase inh
CC(=O)N1CCc2cc(C(=O)CN3CCN(C(=O)c4ccco4)CC3)ccc21,0,11µM,13µM,0,?,18µM
CC(=O)N1CCc2cc(S(=O)(=O)CCC(=O)N3CCN(c4cccc(C)c4C)CC3)ccc21,0,-,0,-,-,-
CC(=O)N1CCc2cc(CNC(=O)Cc3ccc(F)cc3)ccc21,0,-,0,?,-,-
CC(=O)N1CCc2cc(C(=O)CN3CCCN(Cc4ccc(F)cc4)C3)ccc21,0,?,45µM,0,0,0
CC(=O)N1CCc2cc(C(=O)CN3CCN(c4cccc(Cl)c4)CC3)ccc21,0,6.3µM,22µM,0,0,0
NC(=O)c1ccc(NC(=O)CN2CCN(C(=O)c3ccco3)CC2)cc1,0,-,0,-,-,0
CCOc1ccc(CCNC(=O)c2ccc3c(c2)N(Cc2ccccc2F)C(=O)c2ccccc2S3=O)cc1OCC (stereo unspecified),0,-,0,-,-,-
Cc1ccc(SCC(=O)OCC(=O)N(C)CC(=O)Nc2ccccc2Cl)cc1,-,-,0,-,-,-
CC1CCN(CC(=O)N2CCc3ccccc32)CC1,0,-,0,-,-,0
CC(=O)N1CCc2cc(C(=O)CN3CCC(C)CC3)ccc21,0,20µM,18µM,0,0,0
CC(=O)N1C(=O)/C(=C2\SC(=S)N(NS(=O)(=O)c3ccc(C)cc3)C2=O)c2ccccc21,0,13µM,-,0,?,45µM
CC(/C=C1\SC(=S)N(NS(=O)(=O)c2ccc(C)cc2)C1=O)=C\c1ccccc1,0,-,10µM,-,0,0
CC(/C=C1\SC(=S)N(NS(=O)(=O)c2ccccc2)C1=O)=C\c1ccccc1,0,-,16µM,-,0,0
CC(=O)N1C(=O)/C(=C2\SC(=S)N(c3c(C)n(C)n(-c4ccccc4)c3=O)C2=O)c2ccccc21,0,10µM,4µM,0,0,0
O=C1/C(=C\c2ccc(Br)cc2)SC(=S)N1NS(=O)(=O)c1ccccc1,0,-,0,-,-,0
Cc1nc(SCc2ccc(Cl)cc2)c(C#N)c(C)c1Cl,0,-,0,-,-,-
Cc1ccc(NC2CCCN(C(=O)c3cc4ncccn4n3)C2)cc1C (stereo unspecified),0,-,0[0.501 µM],-,-,0
Cc1ccc2c(c1)C1(C(=O)N2)N2CCCC2C(C(=O)c2ccc3ccccc3c2)C12C(=O)Nc1ccccc12 (stereo unspecified),0,-,?,?,0,0
COC(=O)C(Cc1ccc(O)cc1)NC(=O)C(C)NC(=O)c1ccc(C(C)(C)C)cc1 (stereo unspecified),0,-,0,-,-,0
Cc1ccc(S(=O)(=O)NN2C(=O)/C(=C/c3ccccn3)SC2=S)cc1,0,?,40µM,0,0,0
O=C1/C(=C\c2ccccn2)SC(=S)N1c1ccc(S(=O)(=O)Nc2nccs2)cc1,0,-,-,-,0,56µM
CCN(CC)c1ccc(C2C(C(N)=O)=C(C)Nc3ncnn32)cc1 (stereo unspecified),0,-,0,0,-,-
O=C(O)c1cccc(NC(=S)NC(NC(=O)c2cccc([N+](=O)[O-])c2)C(Cl)(Cl)Cl)c1 (stereo unspecified),0,-,50µM,-,0,0
O=C(NC(NC(=S)Nc1ccc(Cl)cc1Cl)C(Cl)(Cl)Cl)c1cccc([N+](=O)[O-])c1 (stereo unspecified),?,18µM,?,?,0,0
CCOCC(=O)Nc1cc([N+](=O)[O-])ccc1OC,0,22µM,0,-,0,0
SMILES,miR-21 FLuc,ALDH1A1 inh,G9a block,LMNA splice mod,KDM4E inh,Sfp PPTase inh
O=C(NC(NC(=S)Nc1ccccc1)C(Cl)(Cl)Cl)c1cccc(Cl)c1 (stereo unspecified),?,?,-,?,0,0
COc1ccc([N+](=O)[O-])cc1NC(=S)NC(NC(C)=O)C(Cl)(Cl)Cl (stereo unspecified),0,-,40µM,-,0,0
COc1ccc([N+](=O)[O-])cc1NC(=S)NC(NC(=O)Cc1ccc(OC)c(OC)c1)C(Cl)(Cl)Cl (stereo unspecified),0,0,0,?,?,0
Cc1ccc(-c2cc(-c3coc4ccc(Cl)cc4c3=O)c3c(n2)-c2ccccc2OC3)cc1,0,-,0,-,-,-
O=C(c1ccc(=O)[nH]c1)N1CCN(S(=O)(=O)c2ccc3ccccc3c2)CC1,-,-,0,-,-,-
CS(=O)(=O)N1CCN(c2ccc(NC(=O)C(c3ccccc3)c3ccccc3)cc2)CC1,0,?,8.9µM,0,0,0
O=C(Nc1ccc(N2CCCC2)cc1)C(Cl)c1ccccc1 (stereo unspecified),0,?,10µM,0,?,45µM
COc1ccccc1NC(=O)CCNS(=O)(=O)c1ccc2c(c1)CCCC(=O)N2,0,-,0,0,-,-
Cc1cc(/C=N/Nc2nc(N3CCOCC3)nc(N3CCOCC3)n2)c(C)n1-c1ccccc1,0,?,0,?,35µM,0
BrC(/C=N/Nc1nc(N2CCOCC2)nc(N2CCOCC2)n1)=C/c1ccccc1,0,?,0[0.501 µM],?,0,79µM
O=[N+]([O-])c1cc2c(cc1/C=N/Nc1nc(N3CCCC3)nc(N3CCCC3)n1)OCO2,0,0,0,0,0,0
Brc1cc2c(cc1/C=N/Nc1nc(N3CCOCC3)nc(N3CCOCC3)n1)OCO2,0,20µM,0,0,0,0
CC1(c2ccc(OC(F)F)cc2)NC(=O)N(/N=C/c2c(O)ccc3ccccc23)C1=O (stereo unspecified),0,0,?,?,0,0
Cc1cc(C)c(C)c(S(=O)(=O)N2CCC(C(=O)Nc3ccc(S(=O)(=O)N4CCOCC4)cc3)CC2)c1C,0,-,-,-,-,0
Cc1ccc(S(=O)(=O)Nc2cc3c(cc2C)n(C)c(=O)c(=O)n3C)cc1,0,-,0,0,-,-
CC(C)n1cnc2c(=S)nc[nH]c21,0,?,0.79µM,0,0,8.9µM
Cc1cc(F)ccc1S(=O)(=O)N1CCCOC1CNC(=O)C(=O)NC1CCCCC1 (stereo unspecified),0,-,-,-,-,0
CC(C)Cn1c(O)c(N=NC(=O)c2cccc(S(=O)(=O)N3CCCCC3)c2)c2ccccc21,0,3.5µM,0[2.33 µM],0,0,0
O=C(CSc1ccc([N+](=O)[O-])cn1)Nc1cc(C(F)(F)F)ccc1N1CCOCC1,0,-,0,-,-,0
CC(C)C(=O)Nc1nnc(S(=O)(=O)N(C)Cc2ccc(F)cc2)s1,0,-,?,-,-,-
CC1(C)CC(=O)C2=C(C1)NC(=S)C(C#N)C21CCCCC1 (stereo unspecified),0,-,0.5µM,-,?,11µM
Cc1cc(C)cc(NC(=O)C(=O)NCC(c2cccnc2)N2CCN(c3ccccc3)CC2)c1 (stereo unspecified),0,-,0,0,-,-
Cc1cc(S(=O)(=O)N(Cc2ccccc2Cl)c2ccc3c(c2)CCC3)ccc1-n1cnnn1,0,5µM,0,0,0,0
